Settings: buffer

## N-ethoxybenzylimidazole-doxorubicin Conjugate [Compound 9]
  half-life (t1/2) for hydrolysis at pH=7.4 by RP-HPLC: 1150 hours
  half-life for hydrolysis at pH=5.5 by RP-HPLC: 55 hours
